{"source": "paper PMC11198849", "about": "“Expression and purification of human neutrophil proteinase 3 from insect cells and characterization of ligand binding” (PLOS ONE, 2024)", "assay_type_in_all_cases": "biochemical", "key": {"rPR3": {"biological_target": "T1, rPR3 (Homo sapiens, UniProt P24158)", "T1 construct": "TEV cleavage site (C); 6x His-tag (C); made in house; host or cells: Spodoptera frugiperda Sf9 (baculovirus), secreted", "T1 sequence (P24158 28-248 limits assumed)": "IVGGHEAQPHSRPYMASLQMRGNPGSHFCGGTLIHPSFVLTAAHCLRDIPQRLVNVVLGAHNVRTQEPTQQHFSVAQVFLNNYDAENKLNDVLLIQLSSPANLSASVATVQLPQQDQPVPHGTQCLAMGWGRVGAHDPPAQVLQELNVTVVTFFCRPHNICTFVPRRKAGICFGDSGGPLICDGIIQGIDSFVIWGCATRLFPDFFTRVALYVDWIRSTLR", "assay": "Fluorescence-based enzymatic activity assay with rPR3 (FRET peptide Abz-VADnVADYQ-EDDnp)", "conditions": "Rep1-Rep3"}, "hPR3": {"biological_target": "T2, hPR3 (Homo sapiens, UniProt P24158)", "T2 construct": "Enzymes purified from human neutrophiles (hPR3 and hNE); purchased Athens Research and Technology; host or cells: human neutrophils", "T2 sequence (P24158 28-248 limits assumed)": "T1 sequence (P24158 28-248 limits assumed)", "assay": "Fluorescence-based enzymatic activity assay with hPR3 (FRET peptide Abz-VADnVADYQ-EDDnp)", "conditions": "Rep1-Rep3"}, "hNE": {"biological_target": "T3, hNE (Homo sapiens, UniProt P08246)", "T3 construct": "Enzymes purified from human neutrophiles (hPR3 and hNE); purchased Athens Research and Technology; host or cells: human neutrophils", "T3 sequence (P08246 30-247 limits assumed)": "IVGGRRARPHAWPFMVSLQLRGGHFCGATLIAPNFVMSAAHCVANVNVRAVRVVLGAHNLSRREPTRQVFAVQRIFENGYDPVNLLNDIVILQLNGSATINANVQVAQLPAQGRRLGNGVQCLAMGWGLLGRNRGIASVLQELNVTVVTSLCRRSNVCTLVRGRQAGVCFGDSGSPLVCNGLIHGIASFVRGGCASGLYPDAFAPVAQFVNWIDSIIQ", "assay": "Fluorescence-based enzymatic activity assay with hNE (MeOSuc-AAPV-AMC substrate)"}}, "note": "Several values for one entry are separate records, joined by “and”; a condition that tells them apart may be missing. Equal entries are not always repeated. Where two headings read alike, the source gives them in different places."}
{"molecule": "CC1=C(C#N)[C@@H](c2ccc(C#N)cc2S(C)(=O)=O)N(C)C(=O)N1c1cccc(C(F)(F)F)c1", "note": "[BAY-85-8501]", "values": [{"measurement": "%Relative activity of enzyme", "setting": "rPR3; inhibitor 7.8 nM", "result": "89.0593% and 90.6766% and 85.1321%"}, {"measurement": "%Relative activity of enzyme", "setting": "rPR3; inhibitor 15.6 nM", "result": "76.0675% and 76.7003% and 76.2025%"}, {"measurement": "%Relative activity of enzyme", "setting": "rPR3; inhibitor 62.5 nM", "result": "43.7984% and 49.2522% and 44.5595%"}, {"measurement": "%Relative activity of enzyme", "setting": "rPR3; inhibitor 125 nM", "result": "32.6099% and 34.0081% and 34.3002%"}, {"measurement": "%Relative activity of enzyme", "setting": "rPR3; inhibitor 250 nM", "result": "16.7036% and 20.0993% and 16.9521%"}, {"measurement": "%Relative activity of enzyme", "setting": "rPR3; inhibitor 500 nM", "result": "10.4485% and 11.7346% and 8.335%"}, {"measurement": "%Relative activity of enzyme", "setting": "hPR3; inhibitor 7.8 nM", "result": "72.7879% and 70.4122% and 80.9211%"}, {"measurement": "%Relative activity of enzyme", "setting": "hPR3; inhibitor 15.6 nM", "result": "59.2013% and 59.3772% and 64.0885%"}, {"measurement": "%Relative activity of enzyme", "setting": "hPR3; inhibitor 31.25 nM", "result": "42.7531% and 47.405% and 49.3541%"}, {"measurement": "%Relative activity of enzyme", "setting": "hPR3; inhibitor 62.5 nM", "result": "29.987% and 30.5857% and 32.445%"}, {"measurement": "%Relative activity of enzyme", "setting": "hPR3; inhibitor 125 nM", "result": "20.6277% and 18.9012% and 26.7161%"}, {"measurement": "%Relative activity of enzyme", "setting": "hPR3; inhibitor 250 nM", "result": "10.8483% and 13.1132% and 14.812%"}, {"measurement": "%Relative activity of enzyme", "setting": "hPR3; inhibitor 500 nM", "result": "6.484% and 5.722% and 6.897%"}]}
{"molecule": "CC(C)(C)C(=O)Oc1ccc(S(=O)(=O)Nc2ccccc2C(=O)NCC(=O)O)cc1", "note": "[Sivelestat]", "values": [{"measurement": "IC50", "setting": "hNE; IC50 replicates Rep1-Rep3, read-out: hNE IC50", "result": "9.35 nM and 8.3 nM and 8.95 nM"}, {"measurement": "IC50", "setting": "hNE; mean ± SD (n = 3), read-out: IC50 hNE This study", "result": "9 ± 1", "unit": "nM"}]}
